Patent US5856189A, “Cell culture model for drug bioavailability” (priority 1997, dated 1999)

Columns and labels:
IFABP = assay: Immunoblot of IFABP in Caco-2 cells; assay type: cell-based, human; conditions: two weeks treatment, varying concentrations
P-glycoprotein = assay: Immunoblot of P-glycoprotein in Caco-2 cells; assay type: cell-based, human; conditions: two weeks treatment
[1] = test system: IFABP mRNA (Caco-2 cells)
cytochrome b5 = assay: Immunoblot of cytochrome b5 in Caco-2 cells; assay type: cell-based, human; conditions: two weeks treatment, varying concentrations
[2] = test system: CYP3A4 mRNA (Caco-2 cells)

Row | SMILES | level of IFABP protein (IFABP) | concentrations at which immunoreactive P-glycoprotein increased (P-glycoprotein) [µM] | IFABP mRNA level [1] | level of cytochrome b5 immunoreactive protein (cytochrome b5) | enhancement of CYP3A4 mRNA expression [2]
1 | C=C1/C(=C\C=C2/CCC[C@]3(C)[C@@H]([C@H](C)CCCC(C)(C)O)CC[C@@H]23)C[C@@H](O)C[C@@H]1O [1α,25-(OH)2 -D3, 1α,25-dihydroxyvitamin D3] | Neither of the FABPs showed changes in levels of expression | ≥ 0.5 | did not appear to increase | did not appear to change | 
2 | CC(=O)C(=O)[O-].[Na+] [sodium pyruvate] |  |  |  |  | did not appear to enhance CYP3A4 mRNA expression
